Molecular target: Axl (Homo sapiens, UniProt P30530)
Assay: Phospho-Akt in-cell Western assay
Conditions: Hela cells, stimulated by Axl-antibody cross-linking, phospho-Akt chemiluminescence; Table 1, formula (Ia)
Method: Phospho-Akt in-Cell Western Assay
The compounds of the invention were tested in the following assay for their ability to inhibit Axl activity. […]

Chains of the proteins cited; added tags and fusions are not shown. Residues count along the entry.
UniProt P30530, 26-894 limits assumed: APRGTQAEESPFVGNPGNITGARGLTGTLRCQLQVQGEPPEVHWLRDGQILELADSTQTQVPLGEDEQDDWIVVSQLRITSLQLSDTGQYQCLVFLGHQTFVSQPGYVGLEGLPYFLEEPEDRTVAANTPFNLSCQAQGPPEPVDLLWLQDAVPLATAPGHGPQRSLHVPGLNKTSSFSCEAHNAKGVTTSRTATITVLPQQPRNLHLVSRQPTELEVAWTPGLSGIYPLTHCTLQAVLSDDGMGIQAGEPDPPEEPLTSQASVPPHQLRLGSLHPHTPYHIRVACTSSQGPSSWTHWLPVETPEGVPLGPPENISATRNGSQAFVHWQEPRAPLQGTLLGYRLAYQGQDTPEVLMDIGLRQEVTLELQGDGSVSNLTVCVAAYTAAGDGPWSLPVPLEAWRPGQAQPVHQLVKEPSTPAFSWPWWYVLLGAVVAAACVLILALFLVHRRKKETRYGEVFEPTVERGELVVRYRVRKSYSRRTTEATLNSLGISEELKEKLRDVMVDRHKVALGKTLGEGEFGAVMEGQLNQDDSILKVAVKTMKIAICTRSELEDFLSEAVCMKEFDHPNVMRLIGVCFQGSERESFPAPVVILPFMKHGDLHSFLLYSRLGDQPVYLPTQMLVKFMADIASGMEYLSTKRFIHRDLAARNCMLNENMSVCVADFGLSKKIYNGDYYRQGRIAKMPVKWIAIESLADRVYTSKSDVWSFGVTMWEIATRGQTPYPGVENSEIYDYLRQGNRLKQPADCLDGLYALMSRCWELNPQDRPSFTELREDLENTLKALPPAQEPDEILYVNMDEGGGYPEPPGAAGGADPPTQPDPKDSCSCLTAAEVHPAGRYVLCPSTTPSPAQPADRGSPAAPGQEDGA

Nc1nc(Nc2ccc3c(c2)CC[C@@H](NCc2ccc(Cl)s2)CC3)nn1-c1cc2c(nn1)-c1ccccc1CCC2
IC50: 1 to 10 µM

— US9173882B2, “Polycyclic heteroaryl substituted triazoles useful as Axl inhibitors” (Rigel Pharmaceuticals, Inc., priority 2008, dated 2015)
